From PMC5826244 (OncoTargets and therapy, 2018) come the findings set out here.

The target in this test is T1, LH-RH-I receptors, membranes of human UM models (Homo sapiens, UniProt P30968).
T1 sequence (P30968 1-328): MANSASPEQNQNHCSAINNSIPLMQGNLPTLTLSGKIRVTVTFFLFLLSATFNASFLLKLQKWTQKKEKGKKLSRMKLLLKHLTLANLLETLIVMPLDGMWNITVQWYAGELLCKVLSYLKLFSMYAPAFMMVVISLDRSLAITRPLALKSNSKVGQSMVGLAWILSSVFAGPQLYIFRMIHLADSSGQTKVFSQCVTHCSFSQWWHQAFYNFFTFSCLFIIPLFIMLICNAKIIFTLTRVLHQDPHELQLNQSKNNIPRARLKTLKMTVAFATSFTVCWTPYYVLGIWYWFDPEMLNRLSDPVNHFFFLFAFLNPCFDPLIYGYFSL
The test is described as follows: Radioligand binding / ligand competition, human UM samples. The note with it: increasing concentrations 10^−12–10^−6 M; data not shown.

As for cetrorelix, the “displacement of radiolabeled [D-Trp6]LH-RH binding” value is reported as “completely displaced”.
